Measured values as given in PMC6626687.

Biological target: F-actin (UniProt P60709)
Test: co-sedimentation

percent recovered in the F-actin pellet	percent recovered in the F-actin pellet, with tau45-230 present	percent recovered in the F-actin pellet, with full-length tau present	Substance
43%	25%		recombinant full-length tau (from UniProt P10636-4 1-381) (natural protein)
19%		29%	recombinant tau_(45-230) (from UniProt P10636-8 45-230) (domain or fragment)
